Data from ChEMBL document CHEMBL1140014, “Synthesis and evaluation of pyrazolo[3,4-b]pyridine CDK1 inhibitors as anti-tumor agents” (Bioorg Med Chem Lett, 2007).

Assays:
Assay in all cases: cells
Details in all cases: Homo sapiens
HCT-116 = test system: HCT-116
HeLa = test system: HeLa
A-375 = test system: A-375

IC50 (HCT-116) [nM] | SMILES | also measured
8010 | COC(=O)c1cccc2[nH]c(-c3n[nH]c4ncc(-c5cncc6ccccc56)cc34)nc12 | –
3.2 | COCc1cccc2[nH]c(-c3n[nH]c4ncc(-c5cnc6ccccc6c5)cc34)nc12 | –
– | CNCc1cncc(-c2cnc3[nH]nc(-c4nc5cc(OC(F)(F)F)ccc5[nH]4)c3c2)c1 | IC50 (HeLa): 93 nM
– | OCc1cccc2[nH]c(-c3n[nH]c4ncc(-c5cncc6ccccc56)cc34)nc12 | IC50 (A-375): 1470 nM
